From patent US9199944B2 (priority 2012, dated 2015)

Chains of the proteins cited; added tags and fusions are not shown.
UniProt Q07912, whole entry, species assumed: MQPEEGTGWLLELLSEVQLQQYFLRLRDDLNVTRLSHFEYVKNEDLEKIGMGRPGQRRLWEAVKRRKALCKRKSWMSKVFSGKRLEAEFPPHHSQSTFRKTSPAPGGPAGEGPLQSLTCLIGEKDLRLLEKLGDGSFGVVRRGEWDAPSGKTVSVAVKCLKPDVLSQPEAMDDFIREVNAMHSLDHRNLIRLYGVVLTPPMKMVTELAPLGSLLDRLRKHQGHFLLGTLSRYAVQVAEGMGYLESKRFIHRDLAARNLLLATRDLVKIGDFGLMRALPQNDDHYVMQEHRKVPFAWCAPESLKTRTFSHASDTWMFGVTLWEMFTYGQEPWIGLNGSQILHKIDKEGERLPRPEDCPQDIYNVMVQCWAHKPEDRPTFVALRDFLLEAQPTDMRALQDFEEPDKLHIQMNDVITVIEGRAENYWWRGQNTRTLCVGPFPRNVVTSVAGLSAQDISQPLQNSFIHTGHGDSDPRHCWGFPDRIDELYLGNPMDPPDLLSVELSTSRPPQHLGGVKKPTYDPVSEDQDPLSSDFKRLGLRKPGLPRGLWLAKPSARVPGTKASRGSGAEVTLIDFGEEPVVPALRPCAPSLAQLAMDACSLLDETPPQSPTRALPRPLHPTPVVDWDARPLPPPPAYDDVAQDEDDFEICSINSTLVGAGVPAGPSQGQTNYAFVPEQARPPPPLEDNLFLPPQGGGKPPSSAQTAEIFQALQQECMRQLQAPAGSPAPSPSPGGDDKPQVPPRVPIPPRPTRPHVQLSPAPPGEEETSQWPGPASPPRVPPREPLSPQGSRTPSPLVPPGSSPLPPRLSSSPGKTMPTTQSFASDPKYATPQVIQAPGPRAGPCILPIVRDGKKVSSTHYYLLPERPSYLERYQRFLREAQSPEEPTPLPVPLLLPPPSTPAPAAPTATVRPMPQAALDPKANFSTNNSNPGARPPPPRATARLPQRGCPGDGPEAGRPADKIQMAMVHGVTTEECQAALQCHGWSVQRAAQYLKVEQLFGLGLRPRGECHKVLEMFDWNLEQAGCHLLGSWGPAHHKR

Key:
[1] = test system: H3122 NSCLC lung cancer cell line xenograft; settings: mouse, in vivo
ACK1 [2] = target: T1, ACK1 (Homo sapiens (Human), UniProt Q07912)
ACK1 [3] = target: T1, ACK1; test: biochemical; settings: 40 min; for remaining activity at 0.1 µM: read-out: Ack1 activation rate % (0.1 μM); for remaining activity at 1 µM: read-out: Ack1 activation rate % (1 μM)

SMILES	increase of tumor volume compared to that of the first day [1]	phosphorylation rate of ACK1 (inhibition of ACK1) (ACK1 [2])	remaining activity at 0.1 µM (ACK1 [3])	remaining activity at 1 µM (ACK1 [3])
C[C@@H](Oc1cc(-c2cnn(C3CCNCC3)c2)cnc1N)c1c(Cl)ccc(F)c1Cl [Crizotinib, reference compound]	about 2.3 fold			
Cc1nc(Nc2ncc(C(=O)Nc3c(C)cccc3Cl)s2)cc(N2CCN(CCO)CC2)n1 [Dasatinib, reference compound]		significantly lower		
CCOc1cc(N2CCN(C(C)=O)CC2)ccc1Nc1nc(Nc2ccc(N3CCN(C(C)=O)CC3)cc2OC)ncc1Cl [Example 1, 1-(4-(4-(4-(4-(4-acetylpiperazin-1-yl)-2-ethoxyphenylamino)-5-chloropyrimidin-2-ylamino)-3-methoxyphenyl)piperazin-1-yl)ethanone]		significantly lowering the concentration of ACK1	4%	1%
COc1cc(N2CCN(C(C)=O)CC2)ccc1Nc1ncc(C(F)(F)F)c(Nc2ccc(N3CCN(C)CC3)cc2OC)n1 [Example 59]			2%	0%
COc1cc(N2CCN(C(C)=O)CC2)ccc1Nc1ncc(C(F)(F)F)c(Nc2ccc(N3CCN(CCO)CC3)cc2OC)n1 [Example 61, 1-(4-(4-((4-((4-(4-(2-hydroxyethyl)piperazin-1-yl)-2-methoxyphenyl)amino)-5-(trifluoromethyl)pyrimidin-2-yl)amino)-3-methoxyphenyl)piperazin-1-yl)ethanone]			2%	0%
COc1cc(N2CCN(C(=O)OC(C)(C)C)CC2)ccc1Nc1ncc(C(F)(F)F)c(Nc2ccc(N3CCN(C(C)=O)CC3)cc2OC)n1 [Example 62, tert-butyl-4-(4-((4-((4-(4-acetylpiperazin-1-yl)-2-methoxyphenyl)amino)-5-(trifluoromethyl)pyrimidin-2-yl)amino)-3-methoxyphenyl)piperazin-1-carboxylate]			≤ 10%	
COc1cc(N2CCNCC2)ccc1Nc1ncc(C(F)(F)F)c(Nc2ccc(N3CCN(C(C)=O)CC3)cc2OC)n1 [Example 63, 1-(4-(3-methoxy-4-((2-((2-methoxy-4-(piperazin-1-yl)phenyl)amino)-5-(trifluoromethyl)pyrimidin-4-yl)amino)phenyl)piperazin-1-yl)ethanone]			2%	0%
COc1cc(N2CCN(S(C)(=O)=O)CC2)ccc1Nc1ncc(C(F)(F)F)c(Nc2ccc(N3CCN(C(C)=O)CC3)cc2OC)n1 [Example 67, 1-(4-(3-methoxy-4-((2-((2-methoxy-4-(4-(methylsulfonyl)piperazin-1-yl)phenyl)amino)-5-(trifluoromethyl)pyrimidin-4-yl)amino)phenyl)piperazin-1-yl)ethanone]			2%	0%
COc1cc(N2CCN(CCO)CC2)ccc1Nc1ncc(C(F)(F)F)c(Nc2ccc(N3CCN(C(C)=O)CC3)cc2OC)n1 [Example 68, 1-(4-(4-((2-((4-(4-(2-hydroxyethyl)piperazin-1-yl)-2-methoxyphenyl)amino)-5-(trifluoromethyl)pyrimidin-4-yl)amino)-3-methoxyphenyl)piperazin-1-yl)ethanone]			1%	0%
COc1cc(N2CCN(C(=O)CO)CC2)ccc1Nc1ncc(C(F)(F)F)c(Nc2ccc(N3CCN(C(=O)CO)CC3)cc2OC)n1 [Example 72, 1,1′-(4,4′-(((5-(trifluoromethyl)pyrimidin-2,4-diyl)bis(azanediyl))bis(3-methoxy-4,1-phenylene))bis(piperazin-4,1))bis(2-hydroxyethanone)]			1%	0%
CC(=O)N1CCN(c2ccc(Nc3ncc(C(F)(F)F)c(Nc4ccc(N5CCN(C(C)=O)CC5)cc4OC(F)F)n3)c(OC(F)F)c2)CC1 [Example 73]			1%	0%
COc1cc(N2CCN(C(C)=O)CC2)ccc1Nc1ncc(Cl)c(Nc2ccc(N3CCNCC3)cc2F)n1 [Example 81, 1-(4-(4-((5-chloro-4-((2-fluoro-4-(piperazin-1-yl)phenyl)amino)pyrimidin-2-yl)amino)-3-methoxyphenyl)piperazin-1-yl)ethanone]			3%	1%
COc1cc(N2CCN(C(=O)CO)CC2)ccc1Nc1ncc(Cl)c(Nc2ccc(N3CCN(C(C)=O)CC3)cc2OC)n1 [Example 83, 1-(4-(4-((4-((4-(4-acetylpiperazin-1-yl)-2-methoxyphenyl)amino)-5-chloropyrimidin-2-yl)amino)-3-methoxyphenyl)piperazin-1-yl)-2-hydroxyethanone]			0%	0%
COc1cc(N2CCN(CCO)CC2)ccc1Nc1ncc(Cl)c(Nc2ccc(N3CCN(C(C)=O)CC3)cc2OC)n1 [Example 85, 1-(4-(4-((5-chloro-2-((4-(4-(2-hydroxyethyl)piperazin-1-yl)-2-methoxyphenyl)amino)pyrimidin-4-yl)amino)-3-methoxyphenyl)piperazin-1-yl)ethanone]			0%	0%
COc1cc(N2CCN(C(C)=O)CC2)ccc1Nc1ncc(Cl)c(Nc2ccc(N3CCN(C(=O)CO)CC3)cc2OC(F)F)n1 [Example 88, 1-(4-(4-((2-((4-(4-acetylpiperazin-1-yl)-2-methoxyphenyl)amino)-5-chloropyrimidin-4-yl)amino)-3-(difluoromethoxy)phenyl)piperazin-1-yl)-2-hydroxyethanone]			0%	0%
